Measured values from patent publication US6489535B1, “Non-mammalian transgenic animal having an adult onset neurodegenerative phenotype” (priority 1999, dated 2002).

Test system: AON mutant fly strain
Type: in vivo, Drosophila melanogaster
Protocol: Each compound was prepared over a range of dilutions and each was tested for the activity of alleviating the adult onset neurodegeneration condition. The compound dilutions were uptaken by either the larva or adult flies. The compound dilutions were mixed into the nutrient media and this served as the food/water source for either larva or flies. The adult onset neurodegeneration symptoms and their timelines were monitored for each compound dilution and compared to the no treatment control. Compounds examined here included: beta-estradiol, zinc chloride, sodium chloride, water, chocolate, and phosphate buffered saline.
To test whether this AON mutant condition is a good model for human AON conditions (Alzheimer's, stroke, Parkinson's, etc.), compounds known to influence human AON conditions were administered orally to the mutant AON fly strain. In addition, compounds were also tested in the AON mutant fly strain that were known not to influence human AON conditions. Finally, a complex mixture with unknown influence on human AON conditions was tested in the AON mutant fly strain.
To validate the AON fly for drug discovery relevant to human biology and diseases, this fly strain was subjected to an extensive array of chemicals that are known to have their effect on the human nervous system.

SMILES: Nc1nc2ccc(OC(F)(F)F)cc2s1 [Riluzole]
- L.D. (dose 1 mg/ml): L.D. 100
- L.D. (dose .1 mg/ml): L.D. 100 (some

Like-named read-outs stand apart in the source and are kept apart here.
